Consider one compound from ChEMBL document CHEMBL1126621 (J Med Chem, 1993).

Protein sequences, listed by entry. Tags and fused reporters are not part of them. Lines headed by an entry give the natural chain unless they say otherwise; changes in a name come on top.
UniProt P41145: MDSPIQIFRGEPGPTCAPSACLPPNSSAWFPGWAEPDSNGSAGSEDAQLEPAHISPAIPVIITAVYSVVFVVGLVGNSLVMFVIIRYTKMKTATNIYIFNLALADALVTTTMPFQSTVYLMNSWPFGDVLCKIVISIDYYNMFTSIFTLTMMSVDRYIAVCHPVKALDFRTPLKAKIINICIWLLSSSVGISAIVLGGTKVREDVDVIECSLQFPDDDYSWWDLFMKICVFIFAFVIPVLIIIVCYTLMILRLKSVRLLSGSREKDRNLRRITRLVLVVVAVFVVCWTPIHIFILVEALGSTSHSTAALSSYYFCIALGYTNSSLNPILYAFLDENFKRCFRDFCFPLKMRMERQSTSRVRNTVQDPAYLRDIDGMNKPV
UniProt P41143, whole entry, looked up: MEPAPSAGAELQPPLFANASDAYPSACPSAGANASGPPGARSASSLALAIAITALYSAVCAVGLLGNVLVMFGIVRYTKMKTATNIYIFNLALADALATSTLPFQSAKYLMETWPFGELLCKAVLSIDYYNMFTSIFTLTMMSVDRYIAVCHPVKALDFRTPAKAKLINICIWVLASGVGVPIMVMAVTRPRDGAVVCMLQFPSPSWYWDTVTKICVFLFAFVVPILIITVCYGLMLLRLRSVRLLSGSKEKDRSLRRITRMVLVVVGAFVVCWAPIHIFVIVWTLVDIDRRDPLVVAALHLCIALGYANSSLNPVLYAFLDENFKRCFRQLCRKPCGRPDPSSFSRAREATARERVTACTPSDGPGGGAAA

Molecules are shown by their SMILES.

This assay addresses Opioid receptors; delta & kappa (Homo sapiens) (UniProt P41145+P41143). As to the kind of experiment: Relative affinity for delta and kappa opioid receptors of guinea pig brain homogenate. To be noted: Cavia porcellus.

Compound `CC[C@H](C)[C@H](NC(=O)[C@H](CCCNC(=N)N)NC(=O)[C@H](CCCNC(=N)N)NC(=O)[C@H](CC(C)C)NC(=O)[C@H](Cc1ccccc1)NC(=O)CNC(=O)CNC(=O)[C@@H](N)Cc1ccc(O)cc1)C(=O)N[C@@H](CCCNC(=N)N)C(=O)N1CCC[C@H]1C(=O)N[C@@H](CCCCN)C(=O)N[C@@H](CC(C)C)C(=O)N[C@@H](CCCCN)C(=O)O` [ANALOG OF DYNORPHIN A] yielded a Selectivity of 36.
